Earlier results in patent publication US20100280031A1, “LIPID FORMULATION OF APOPTOSIS PROMOTER” (priority 2009, published 2010).

The chains behind the UniProt entries cited, without tags or fusion partners.
UniProt P10415, whole entry: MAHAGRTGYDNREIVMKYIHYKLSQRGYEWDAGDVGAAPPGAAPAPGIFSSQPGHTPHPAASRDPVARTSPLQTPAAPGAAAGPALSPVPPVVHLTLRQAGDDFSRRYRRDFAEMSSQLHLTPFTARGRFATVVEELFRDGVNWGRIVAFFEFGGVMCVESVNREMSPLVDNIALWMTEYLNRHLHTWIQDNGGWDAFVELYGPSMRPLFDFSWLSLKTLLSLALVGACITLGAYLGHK

Target: Bcl-2 (Homo sapiens, UniProt P10415)
Details: read-out: binding affinity; cited from earlier work

CC1(C)CCC(c2ccc(Cl)cc2)=C(CN2CCN(c3ccc(C(=O)NS(=O)(=O)c4ccc(N[C@H](CCN5CCOCC5)CSc5ccccc5)c(S(=O)(=O)C(F)(F)F)c4)cc3)CC2)C1 [ABT-263]
Ki: < 1 nM
